Results reported in US7622491B2, “Modulators of PPAR and methods of their preparation” (Metabolex Inc., priority 2004, dated 2009).

Chains of the proteins cited; added tags and fusions are not shown. Lines headed by an entry give the natural chain unless they say otherwise; changes in a name come on top. Residues count along the entry.
UniProt P37238, 238-503 limits assumed: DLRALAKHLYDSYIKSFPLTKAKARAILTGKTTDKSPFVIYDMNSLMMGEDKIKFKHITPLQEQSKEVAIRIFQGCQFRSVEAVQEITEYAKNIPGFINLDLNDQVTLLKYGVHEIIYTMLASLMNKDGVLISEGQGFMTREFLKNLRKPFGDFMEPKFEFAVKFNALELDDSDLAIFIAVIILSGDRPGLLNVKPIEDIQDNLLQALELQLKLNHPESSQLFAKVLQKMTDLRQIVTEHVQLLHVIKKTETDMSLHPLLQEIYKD
UniProt P35396, 210-438 limits assumed: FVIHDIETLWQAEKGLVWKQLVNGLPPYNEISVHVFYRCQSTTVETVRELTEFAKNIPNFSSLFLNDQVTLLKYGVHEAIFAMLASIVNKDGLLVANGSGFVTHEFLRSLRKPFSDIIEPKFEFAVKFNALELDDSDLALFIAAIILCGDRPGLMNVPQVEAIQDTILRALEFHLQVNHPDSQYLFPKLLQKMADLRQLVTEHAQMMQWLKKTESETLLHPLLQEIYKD
UniProt P23204, 239-466 limits assumed: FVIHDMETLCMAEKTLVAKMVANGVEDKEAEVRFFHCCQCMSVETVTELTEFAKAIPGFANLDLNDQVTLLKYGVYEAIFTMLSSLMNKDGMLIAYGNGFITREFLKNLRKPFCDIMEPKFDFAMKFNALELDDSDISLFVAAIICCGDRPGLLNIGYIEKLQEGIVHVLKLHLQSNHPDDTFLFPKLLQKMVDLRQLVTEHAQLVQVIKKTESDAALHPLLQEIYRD

Tests used:
mouse PPARγ = mouse PPARγ (Mus musculus, UniProt P37238); experiment: PPARγ transactivation (GAL4 chimeric receptor luciferase reporter) assay; conditions: read-out: Gene Activation Assay: EC50 (≦10 μM) PPAR gamma; GAL4-mPPARγ chimeric receptor, pFR-Luc reporter, HEK293T cells, 20 hours incubation
Source text: (§1) Chimeric receptors were constructed in which the yeast transcription factor GAL4 DNA binding domain was fused to the ligand binding domain of either mouse PPARγ, mouse PPAR δ or mouse PPAR α in order to assess the ability of the compounds of the present invention to activate gene expression in a PPAR-dependent manner. The chimeric receptor expression plasmids (GAL4-mPPARγ, GAL4-mPPAR δ and GAL4-PPAR α) and the reporter plasmid containing 5×GAL4 binding site (pFR-Luc, obtained from Stratagene) were transfected into HEK293T cells using the Lipofectamine 2000 reagent (Invitrogen), according to the manufacturers instructions. Six hours after transfection, the culture medium was renewed and the cells were incubated for 20 hours in presence of either 1) DMSO (vehicle), 2) a compound of the invention or 3) a reference compound for comparison. Rosiglitazone (obtained from WDF Pharma) was used as a reference compound for the PPARγ assay; GW501516 (prepared as described in Sznaidman et al. Bioorg. Med. Chem. Lett. (2003) 13:1517-1521) was used as a reference compound for the PPAR δ assay and GW7647 (obtained from Sigma) was used as a reference compound for the PPAR α assay. Luciferase activity was measured as a reporter of gene expression. Luciferase activity on the cell lysates using the Steady-Glo reagent was measured according to the manufacturers instructions.

mouse PPAR δ = mouse PPAR δ (Mus musculus, UniProt P35396); experiment: PPAR δ transactivation (GAL4 chimeric receptor luciferase reporter) assay; conditions: read-out: Gene Activation Assay: EC50 (≦10 μM) PPAR delta; GAL4-mPPAR δ chimeric receptor, pFR-Luc reporter, HEK293T cells, 20 hours incubation
Source text: as §1

mouse PPAR α = mouse PPAR α (Mus musculus, UniProt P23204); experiment: PPAR α transactivation (GAL4 chimeric receptor luciferase reporter) assay; conditions: read-out: Gene Activation Assay: EC50 (≦10 μM) PPAR alpha, pFR-Luc reporter, HEK293T cells, 20 hours incubation
Source text: as §1

Measured: pEC50

O=C(O)Cc1ccc(OCCCOc2ccc(Cl)cc2-n2nc3ccccc3n2)c(Cl)c1
> 5.00: mouse PPARγ | mouse PPAR δ | mouse PPAR α

pEC50: −log10 of the molar value.
